Consider one molecule from patent US7037678 (CALIFORNIA INSTITUTE OF TECHNOLOGY, dated 2006).

The target in this assay is T1, endogenous Claspin of Xenopus egg extract (Xenopus, UniProt Q9DF50, phosphorylated in checkpoint-activated extract; sites not given).
T1 construct: Native protein in interphase egg extract
As to the kind of experiment: pull-down from interphase egg extract on nickel agarose then glutathione agarose, SDS-PAGE and silver staining; the control beads carried His6-GST. As to the method:
Ni-IDA beads (10 µl) containing Xchk1-WT-GST-His6 protein (5 µg) were incubated for 100 min at 23° C. in 100 µl of interphase egg extract containing 3 µM tautomycin, 100 µg/ml cycloheximide, and either 50 µg/ml poly(dA)$70$ or 50 µg/ml poly(dA)$70$–poly(dT)$70$ in the presence or absence of 5 mM caffeine. The beads were isolated by centrifugation and washed four times in 10 mM Hepes-KOH (pH 7.5) containing 150 mM NaCl, 0.5% NP-40, 2.5 mM EGTA, and 20 mM β-glycerolphosphate. Bound proteins were eluted with 150 mM imidazole in the same buffer. The eluate was diluted to 500 µl and incubated with 10 µl Glutathione Sepharose 4 Fast Flow (Amersham Pharmacia Biotech) for 30 min at 4° C. The beads were washed three times in the same buffer and then subjected to SDS-PAGE. For protein sequencing, 30 ml of interphase egg extract and 1.5 mg of Xchk1-WT-GST-His6 protein were used to isolate Claspin. Proteins were eluted from glutathione agarose with 0.1% SDS, concentrated with a Microsep, 30K device (Filtron Technology), treated with dithiothreitol, alkylated, and subjected to SDS-PAGE. The gel was stained with SYPRO Red (Molecular Probes). Tryptic peptides from Claspin were separated on a Vydac C18 column and sequenced in the Caltech facility. […]

B1: His6-GST (other)
chain: HHHHHHMSPILGYWKIKGLVQPTRLLLEYLEEKYEEHLYERDEGDKWRNKKFELGLEFPNLPYYIDGDVKLTQSMAIIRYIADKHNMLGGCPKERAEISMLEGAVLDIRYGVSRIAYSKDFETLKVDFLSKLPEMLKMFEDRLCHKTYLNGDHVTHPDFMLYDALDVVLYMDPMCLDAFPKLVCFKKRIEAIPQIDKYLKSSKYIAWPLQGWQATFGGGDHPPK
notes: Control protein from pFastBacHT-GST, held on nickel agarose beads; also called control His6-GST protein; control His6-GST; not shown: vector-derived residues between the histidine tag and GST are not described
B1: the binding result is reported as “no binding”.
